Test results reported in patent US8303964B2, “Viable non-toxic gram-negative bacteria” (priority 2006, dated 2012).

Test system: KPM22
Format: cell-based, E. coli
Protocol: The antibiotics used were from Sigma with the exception of cephaloridine, which was obtained from MicroSource Discovery Systems. Antibiotics were chosen based on their varying mode of action and entry into the cell. […] Colonies from LB agar plate were scraped and suspended in media (˜10^4 cells per mL) with varying concentrations of antibiotics. Cultures were incubated with shaking (˜200 rpm) at 37° C. for 18 hours at which point growth was scored by visual inspection.

Compound	Fold Difference in MIC [fold]	Fold Difference in MIC (MIC BW30270 versus MIC KPM22) [fold]
CC[C@H]1OC(=O)[C@H](C)[C@@H](O[C@H]2C[C@@](C)(OC)[C@@H](O)[C@H](C)O2)[C@H](C)[C@@H](O[C@@H]2O[C@H](C)C[C@H](N(C)C)[C@H]2O)[C@](C)(O)C[C@@H](C)C(=O)[C@H](C)[C@@H](O)[C@]1(C)O [Erythromycin]	128	–
CO[C@@H]1[C@@H](OC(N)=O)[C@@H](O)[C@H](Oc2ccc3c(O)c(NC(=O)c4ccc(O)c(CC=C(C)C)c4)c(=O)oc3c2C)OC1(C)C [Novobiocin]	–	256

Read-outs that look alike come from different tables or passages of the source.
